Tested on: ovalbumin-specific CD4+ T cells
Assay: Proliferation (tritiated thymidine uptake) of ovalbumin-specific CD4+ T cells from lymph nodes after pVAC1.OVA vaccination, adoptive transfer model
Format: in vivo, Balb/c mice
Protocol: Splenocytes were prepared as in example 1 above.
To measure the clonal expansion of CD4+ T cells following immunisation, proliferation of ovalbumin-specific T cells following re-challenge in vitro with cognate ovalbumin peptide, was assessed in lymph node preparations collected 3 days after immunisation.

With `CC(C)Cn1cnc2c(N)nc3ccccc3c21` [imiquimod, 1-(2-methylpropyl)-1H-imidazo[4,5-c]quinolin-4-amine] the “proliferation, control plasmid (pVAC1) + imiquimod versus vehicle” value (empty vector pVAC1, imiquimod 30 mg/kg) was “No difference”, the “proliferation, pVAC1.OVA + imiquimod compared with pVAC1.OVA + vehicle” value (imiquimod 30 mg/kg, lymph nodes 3 days after immunisation, re-challenge in vitro with ovalbumin peptide) was “more than twice” and the “clonal expansion of CD4 T cells in vivo (FIG. 2)” value (in words) was “increases”.

— patent publication US20110002953A1, “USE OF IMMIDAZOQUINOLINAMINES AS ADJUVANTS IN DNA VACCINATION” (priority 2000, published 2011)
